# Experimental data from patent US10881712B2, “Neuroprotective agents derived from spider venom peptides” (THE UNIVERSITY OF QUEENSLAND, priority 2015, dated 2021).
# Entries after “also recorded” stand apart in the source; their conditions may differ.
# Molecular target: T1, rASIC1a (Rattus norvegicus, UniProt P55926)
# T1 construct: expressed in transfected cells; host or cells: Xenopus laevis oocytes injected with cRNA
# T1 sequence (P55926 1-526): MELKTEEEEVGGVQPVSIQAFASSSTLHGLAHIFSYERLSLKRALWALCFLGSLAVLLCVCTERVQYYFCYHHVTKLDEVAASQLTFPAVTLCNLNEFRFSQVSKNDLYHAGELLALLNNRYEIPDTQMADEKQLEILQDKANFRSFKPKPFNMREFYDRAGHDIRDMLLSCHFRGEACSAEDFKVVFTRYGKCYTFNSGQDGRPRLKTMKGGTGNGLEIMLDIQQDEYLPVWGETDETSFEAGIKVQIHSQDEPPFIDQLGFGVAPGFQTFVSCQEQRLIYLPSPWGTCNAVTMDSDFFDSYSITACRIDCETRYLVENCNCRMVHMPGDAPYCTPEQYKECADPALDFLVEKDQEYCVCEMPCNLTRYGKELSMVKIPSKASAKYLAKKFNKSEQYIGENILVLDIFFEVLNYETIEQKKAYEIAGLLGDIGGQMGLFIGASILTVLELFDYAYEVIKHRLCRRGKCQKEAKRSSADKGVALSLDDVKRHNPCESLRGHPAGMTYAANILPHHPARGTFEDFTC
# Test: Two-electrode voltage clamp (TEVC) on Xenopus laevis oocytes expressing homomeric rASIC1a
# Type: cell-based
# Description: The ability of the peptides of the invention to modulate ASIC currents was assessed using two-electrode voltage clamp (TEVC) electrophysiology experiments performed on Xenopus laevis oocytes expressing homomeric ASIC channels. Xenopus oocytes are widely used as an expression system for functional characterisation of ion channel modulators. TEVC allows measurement of whole-cell ion channel currents while controlling the membrane potential.
# Oocytes were harvested from anaesthetised female X. laevis then defolliculated by treatment with collagenase (Sigma, type I). Oocytes were injected with in vitro transcribed ASIC cRNA (capped RNA). Oocytes were kept at 17-18° C. in ND96 solution containing 96 mM NaCl, 2 mM KCl, 1.8 mM CaCl2, 2 mM MgCl2, 5 mM HEPES, 5 mM pyruvic acid, 50 μg/ml gentamicin (pH 7.4), and fetal horse serum (2.5%), and experiments were performed at room temperature (21-22° C.) 1-3 days after cRNA injection. Oocytes were clamped at −60 mV (Warner OC-725C oocyte clamp; Warner Instruments, CT, USA) using two standard glass microelectrodes of 0.5-2 MΩ resistance when filled with 3 M KCl. Data acquisition and analysis were performed using pCLAMP software, Version 10 (Axon Instruments, CA, USA). Currents were elicited by a drop in pH from 7.45 to 6.0 using a microperfusion system to allow rapid solution exchange. All experiments were performed using ND96 solution spiked with 0.1% BSA in order to minimise adsorption of peptides to plastic tubing.
structure (smiles),measurement,setting,value
CC[C@H](C)[C@@H]1NC(=O)[C@@H](NC(=O)[C@H](CCC(=O)O)NC(=O)[C@H](CC(N)=O)NC(=O)[C@@H](N)CO)CSSC[C@@H]2NC(=O)[C@@H]3CSSC[C@@H](C(=O)N[C@H](C(=O)N4CCC[C@H]4C(=O)N[C@H](C(=O)N4CCC[C@H]4C(=O)NCC(=O)N[C@@H](Cc4ccccc4)C(=O)N[C@H]4CSSC[C@@H]5NC(=O)[C@@H]6CSSC[C@@H](C(=O)N[C@@H](C)C(=O)N7CCC[C@H]7C(=O)N[C@H](C(=O)N[C@H](C(=O)O)[C@@H](C)O)[C@@H](C)CC)NC(=O)[C@H](C(C)C)NC(=O)[C@H](CO)NC(=O)[C@H](CO)NC(=O)[C@H](CCCCN)NC(=O)[C@H](CC(N)=O)NC(=O)CNC(=O)[C@H](CO)NC(=O)[C@H](CCCNC(=N)N)NC(=O)[C@H](CCCCN)NC(=O)[C@H](Cc7c[nH]c8ccccc78)NC(=O)[C@H](CSSC[C@H](NC(=O)[C@H](CCC(N)=O)NC(=O)[C@H](CCCCN)NC(=O)[C@H](Cc7c[nH]c8ccccc78)NC(=O)[C@H](CCCCN)NC(=O)[C@H](C(C)C)NC(=O)[C@H](CC(C)C)NC4=O)C(=O)N[C@@H](CC(=O)O)C(=O)NCC(=O)N[C@@H](CCCNC(=N)N)C(=O)N[C@@H](CCC(=O)O)C(=O)N[C@@H](CCCNC(=N)N)C(=O)N[C@@H](CC(=O)O)C(=O)N6)NC(=O)[C@H](CCC(=O)O)NC(=O)[C@H](CC(C)C)NC(=O)CNC(=O)[C@H](C)NC5=O)[C@@H](C)CC)C(C)C)NC(=O)[C@H](C(C)C)NC(=O)[C@H](CCC(=O)O)NC(=O)[C@H](Cc4ccccc4)NC(=O)[C@H](CO)NC(=O)[C@H](Cc4c[nH]cn4)NC(=O)[C@H](CCCNC(=N)N)NC(=O)[C@H](CCCNC(=N)N)NC(=O)[C@H](CCCCN)NC(=O)[C@H](Cc4ccc(O)cc4)NC(=O)[C@H](CSSC[C@H](NC(=O)[C@H](CO)NC(=O)[C@H](CC(C)C)NC(=O)[C@H](Cc4c[nH]c5ccccc45)NC(=O)[C@H](CCCCN)NC(=O)[C@H](CCCNC(=N)N)NC1=O)C(=O)N[C@@H](C(C)C)C(=O)N[C@@H](CC(=O)O)C(=O)N[C@@H](CCCNC(=N)N)C(=O)N[C@@H](CCCCN)C(=O)N[C@@H](CC(N)=O)C(=O)N[C@@H](CC(=O)O)C(=O)N3)NC(=O)[C@H](CCC(=O)O)NC(=O)[C@H](CC(C)C)NC(=O)CNC(=O)[C@H](CCC(=O)O)NC2=O [Hi1a],IC50,,0.46 ± 0.16 nM
same,Rapidly reversible inhibition,"Table 1, upon washout",No
same,Extent of inhibition of ASIC1a currents (full or incomplete),at saturating concentrations,incomplete current inhibition
same,Selectivity for ASIC1a over other subtypes,"over rASIC1b, rASIC2a and rASIC3, from 30 nM data",at least 50 fold
same,Higher potency at ASIC1a over other subtypes,"over rASIC2a, rASIC3 and rASIC1b, from 1 μM data",> 2000 fold
same,Effect on pH50 of activation,"peptide applied at pH 7.45, concentration-dependent",shifted to slightly lower values
same,Effect on steady-state desensitisation (SSD) curve,two concentrations of peptide,pH-independent decrease in the maximum current
same,Reversibility of inhibition (in words),upon washout,very slowly reversible; also recorded: very slow reversibility
